## Permeability data for macrocyclic peptides

Collected by the curators of CycPeptMPDB (Li et al. 2023) from Townsend et al. 2020, doi:10.26434/chemrxiv.13335941.v1.

PAMPA measures passive passage through an artificial lipid membrane. Values are log10 P with P in cm/s, so -5 is more permeable than -7.

compound,PAMPA (log10 cm/s)
CC(C)C[C@@H]1NC(=O)[C@@H]2CCCN2C(=O)[C@@H](CC(C)C)NC(=O)[C@@H](CC(C)C)NC(=O)[C@H](C)N(C)C(=O)[C@H](Cc2ccccc2)NC1=O,-5.80
CC(C)C[C@@H]1NC(=O)C[C@H](Cc2ccccc2)NC(=O)[C@@H]2CCCN2C(=O)[C@H](Cc2ccccc2)NC(=O)[C@H](CC(C)C)N(C)C(=O)[C@@H]2CCCN2C(=O)[C@H](CC(C)C)NC1=O,-5.57
CC(C)C[C@H]1NC(=O)[C@@H](C)N(C)C(=O)[C@@H]2CCCN2C(=O)[C@H](Cc2ccccc2)NC(=O)CN(Cc2ccccc2)C(=O)[C@H]2CCCN2C(=O)C[C@H](Cc2ccccc2)NC1=O,-6.45
CC(C)C[C@@H]1C(=O)N(C)[C@@H](CC(C)C)C(=O)N2CCC[C@H]2C(=O)N(C)[C@H](CC(C)C)C(=O)N[C@@H](Cc2ccccc2)C(=O)N2CCC[C@@H]2C(=O)N(C)[C@@H](C)C(=O)N1C,-4.95
CC(C)C[C@@H]1NC(=O)[C@@H]2CCCN2C(=O)[C@@H](CC(C)C)N(C)C(=O)[C@@H](CC(C)C)NC(=O)C[C@H](Cc2ccccc2)NC(=O)[C@H]2CCCN2C(=O)[C@H](Cc2ccccc2)NC1=O,-5.64
CC(C)C[C@@H]1NC(=O)[C@@H]2CCCN2C(=O)[C@@H](CC(C)C)N(C)C(=O)[C@H](CC(C)C)NC(=O)C[C@H](Cc2ccccc2)NC(=O)[C@H]2CCCN2C(=O)[C@H](Cc2ccccc2)NC1=O,-5.36
CC(C)C[C@@H]1C(=O)N[C@@H](Cc2ccccc2)C(=O)N2CCC[C@H]2C(=O)N[C@@H](C)C(=O)N[C@H](CC(C)C)C(=O)N(Cc2ccccc2)CC(=O)N2CCC[C@@H]2C(=O)N1C,-6.32
CCCN1CC(=O)N(C)[C@@H](CC(C)C)C(=O)N[C@@H](CC(C)C)C(=O)N2CCC[C@@H]2C(=O)N(C)[C@@H](CC(C)C)C(=O)N[C@@H](Cc2ccccc2)C(=O)N2CCC[C@@H]2C1=O,-4.93
CC(C)C[C@H]1C(=O)N[C@@H](Cc2ccccc2)C(=O)N2CCC[C@H]2C(=O)N[C@H](C)C(=O)N(C)[C@@H](CC(C)C)C(=O)N(C)[C@@H](CC(C)C)C(=O)N2CCC[C@@H]2C(=O)N1C,-5.37
CC(C)C[C@@H]1C(=O)N[C@@H](Cc2ccccc2)C(=O)N2CCC[C@H]2C(=O)N[C@@H](Cc2ccccc2)CC(=O)N[C@H](CC(C)C)C(=O)N(Cc2ccccc2)CC(=O)N2CCC[C@@H]2C(=O)N1C,-6.84
CCCN1CC(=O)N(C)[C@@H](CC(C)C)C(=O)N[C@@H](CC(C)C)C(=O)N2CCC[C@H]2C(=O)N(C)[C@H](CC(C)C)C(=O)N[C@@H](Cc2ccccc2)C(=O)N2CCC[C@@H]2C1=O,-5.17
CC(C)C[C@@H]1NC(=O)[C@@H](C)NC(=O)[C@H]2CCCN2C(=O)[C@H](Cc2ccccc2)NC(=O)[C@@H](CC(C)C)NC(=O)[C@H]2CCCN2C(=O)[C@H](CC(C)C)NC1=O,-5.34
CCCN1CC(=O)N(C)[C@@H](CC(C)C)C(=O)N[C@H](CC(C)C)C(=O)N2CCC[C@H]2C(=O)N[C@@H](CC(C)C)C(=O)N[C@@H](Cc2ccccc2)C(=O)N2CCC[C@H]2C1=O,-6.05
CC(C)C[C@@H]1NC(=O)[C@H](CC(C)C)N(C)C(=O)[C@H](C)NC(=O)[C@H](Cc2ccccc2)NC(=O)[C@H](CC(C)C)N(C)C(=O)[C@H]2CCCN2C1=O,-5.17
CC(C)C[C@@H]1NC(=O)[C@H](CC(C)C)N(C)C(=O)[C@H](C)N(C)C(=O)[C@@H]2CCCN2C(=O)[C@H](Cc2ccccc2)NC(=O)[C@@H](CC(C)C)N(C)C(=O)[C@H]2CCCN2C1=O,-5.51
CCCN1CC(=O)N[C@H](CC(C)C)C(=O)N(C)[C@@H](CC(C)C)C(=O)N2CCC[C@H]2C(=O)N(Cc2ccccc2)CC(=O)N[C@@H](Cc2ccccc2)C(=O)N2CCC[C@@H]2C1=O,-5.36
CC(C)C[C@@H]1C(=O)N[C@H](CC(C)C)C(=O)N2CCC[C@H]2C(=O)N[C@H](CC(C)C)C(=O)N[C@@H](Cc2ccccc2)C(=O)N[C@@H](Cc2ccccc2)CC(=O)N1C,-5.19
CC(C)C[C@@H]1NC(=O)C[C@H](Cc2ccccc2)NC(=O)[C@H]2CCCN2C(=O)[C@H](Cc2ccccc2)NC(=O)[C@H](CC(C)C)NC(=O)[C@@H]2CCCN2C(=O)C[C@H](Cc2ccccc2)NC1=O,-5.91
CC(C)C[C@@H]1C(=O)N[C@@H](Cc2ccccc2)C(=O)N2CCC[C@@H]2C(=O)N(C)[C@@H](C)C(=O)N(C)[C@H](CC(C)C)C(=O)N[C@H](CC(C)C)C(=O)N2CCC[C@@H]2C(=O)N1C,-5.55
CCCN1CC(=O)N[C@@H](CC(C)C)C(=O)N(C)[C@H](CC(C)C)C(=O)N2CCC[C@H]2C(=O)N[C@H](CC(C)C)C(=O)N[C@@H](Cc2ccccc2)C(=O)N2CCC[C@@H]2C1=O,-5.43
CC(C)C[C@@H]1C(=O)N2CCC[C@@H]2C(=O)N[C@H](CC(C)C)C(=O)N[C@@H](Cc2ccccc2)C(=O)N2CCC[C@@H]2C(=O)N(C)[C@H](C)C(=O)N[C@H](CC(C)C)C(=O)N1C,-5.63
CC(C)C[C@@H]1NC(=O)[C@H]2CCCN2C(=O)[C@H](CC(C)C)N(C)C(=O)[C@H](CC(C)C)NC(=O)C[C@H](Cc2ccccc2)NC(=O)[C@H](Cc2ccccc2)NC1=O,-5.18

2 of these entries, quoted again:

| compound | PAMPA (log10 cm/s) |
|---|---|
| CCCN1CC(=O)N(C)[C@@H](CC(C)C)C(=O)N[C@@H](CC(C)C)C(=O)N2CCC[C@H]2C(=O)N(C)[C@H](CC(C)C)C(=O)N[C@@H](Cc2ccccc2)C(=O)N2CCC[C@@H]2C1=O | -5.17 |
| CC(C)C[C@@H]1NC(=O)[C@@H]2CCCN2C(=O)[C@@H](CC(C)C)NC(=O)[C@@H](CC(C)C)NC(=O)[C@H](C)N(C)C(=O)[C@H](Cc2ccccc2)NC1=O | -5.80 |

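Lipid, pH, incubation time, direction and concentration are not recorded in the data file. The list need not hold all peptides of the study. Entries at the database's floor value (log10 P of -10) are not listed.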